Experimental data as given in patent publication US20260102359A1, “COMBINATION TREATMENT OF DERMAL AND TRANSDERMAL FIBROTIC DISEASES, DISORDERS AND ASSOCIATED PAIN AND INFLAMMATION” (ERESINA, LLC, priority 2022, published 2026).

System: hDMFa myofibroblast cells
Parameters: key to the marks not given beside the values

Compound | Compound Myofibroblast Cytotoxicity Activity
Testosterone Enanthate [Cmpd 932] | +++++
Mitomycin C [Cmpd 680] | ++
O=C(OCCOCCO)c1ccccc1Nc1cccc(C(F)(F)F)c1 [Cmpd 441, Etofenamate] | +++
Cn1c(=O)c2[nH]cnc2n(C)c1=O [Cmpd 106, Aminophylline] | +++
O=C1C=CC(=O)C=C1 [Cmpd 36, 1,4-Benzoquinone] | ++
(+)-Ketoconazole [Cmpd 12] | +++
Dovitinib (TKI258) Lactate [Cmpd 381] | +++
CC[C@H](C)C(=O)O[C@H]1C[C@@H](C)C=C2C=C[C@H](C)[C@H](CC[C@@H]3C[C@@H](O)CC(=O)O3)[C@H]21 [Cmpd 610, Lovastatin] | +++
CC1=C(/C=C/C(C)=C/C=C/C(C)=C/C=C/C=C(C)/C=C/C=C(C)/C=C/C2=C(C)CCCC2(C)C)C(C)(C)CCC1 [Cmpd 7, β-Carotene] | +++
Clindamycin alcoholate [Cmpd 280] | ++
Dehydroepiandrosterone acetate [Cmpd 337] | ++
